# Measurements from ChEMBL document CHEMBL1135301, “Imidazole-based ligands of the Src SH2 protein” (Bioorg Med Chem Lett, 2002).
# Chains of the proteins cited; added tags and fusions are not shown. Lines headed by an entry give the natural chain unless they say otherwise; changes in a name come on top.
# UniProt P12931: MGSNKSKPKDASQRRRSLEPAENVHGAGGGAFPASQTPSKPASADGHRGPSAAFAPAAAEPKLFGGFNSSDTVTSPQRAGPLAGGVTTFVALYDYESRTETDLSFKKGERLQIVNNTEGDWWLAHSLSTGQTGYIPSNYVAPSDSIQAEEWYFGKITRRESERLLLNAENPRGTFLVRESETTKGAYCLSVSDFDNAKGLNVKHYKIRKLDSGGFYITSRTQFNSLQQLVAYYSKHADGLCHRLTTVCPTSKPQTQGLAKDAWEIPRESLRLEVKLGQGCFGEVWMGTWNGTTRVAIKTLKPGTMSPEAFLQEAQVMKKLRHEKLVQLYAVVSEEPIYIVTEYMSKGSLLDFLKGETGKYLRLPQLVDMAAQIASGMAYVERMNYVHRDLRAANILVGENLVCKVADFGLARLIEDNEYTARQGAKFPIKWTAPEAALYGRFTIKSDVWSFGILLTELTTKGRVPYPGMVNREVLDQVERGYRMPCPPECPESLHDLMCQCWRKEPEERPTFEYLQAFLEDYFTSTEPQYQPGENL
# Molecular target: Proto-oncogene tyrosine-protein kinase Src (Homo sapiens, UniProt P12931)
# Test: Binding affinity for p60 c-Src SH2 domain by scintillation proximity assay (SPA)
smiles,measurement,value
CC[C@H](C)[C@H](NC(=O)[C@H](CCC(=O)O)NC(=O)[C@H](CCC(=O)O)NC(=O)[C@H](Cc1ccc(OP(=O)(O)O)cc1)NC(C)=O)C(=O)O,IC50,0.15 µM
